For one compound, Intrinsic activity and Activity results are on record in ChEMBL document CHEMBL1156503, “Long-acting kappa opioid antagonists disrupt receptor signaling and produce noncompetitive effects by activating c-Jun N-terminal kinase” (J Biol Chem, 2007).

Amino acid sequences for entries named in this document (tags omitted). A change or cut given only in a name is not applied to a line headed by its entry.
UniProt P45983: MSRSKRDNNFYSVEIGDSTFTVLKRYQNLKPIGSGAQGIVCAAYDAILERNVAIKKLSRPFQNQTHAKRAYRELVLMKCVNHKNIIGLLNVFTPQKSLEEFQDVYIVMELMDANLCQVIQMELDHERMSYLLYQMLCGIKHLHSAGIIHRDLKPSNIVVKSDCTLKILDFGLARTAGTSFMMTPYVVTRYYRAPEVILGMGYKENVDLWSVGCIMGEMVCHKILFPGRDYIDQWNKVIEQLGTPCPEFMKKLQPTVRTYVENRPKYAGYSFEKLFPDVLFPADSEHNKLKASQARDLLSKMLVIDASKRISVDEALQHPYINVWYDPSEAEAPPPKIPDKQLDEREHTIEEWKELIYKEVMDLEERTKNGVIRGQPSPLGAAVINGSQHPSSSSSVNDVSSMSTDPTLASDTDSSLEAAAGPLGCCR
UniProt P53779: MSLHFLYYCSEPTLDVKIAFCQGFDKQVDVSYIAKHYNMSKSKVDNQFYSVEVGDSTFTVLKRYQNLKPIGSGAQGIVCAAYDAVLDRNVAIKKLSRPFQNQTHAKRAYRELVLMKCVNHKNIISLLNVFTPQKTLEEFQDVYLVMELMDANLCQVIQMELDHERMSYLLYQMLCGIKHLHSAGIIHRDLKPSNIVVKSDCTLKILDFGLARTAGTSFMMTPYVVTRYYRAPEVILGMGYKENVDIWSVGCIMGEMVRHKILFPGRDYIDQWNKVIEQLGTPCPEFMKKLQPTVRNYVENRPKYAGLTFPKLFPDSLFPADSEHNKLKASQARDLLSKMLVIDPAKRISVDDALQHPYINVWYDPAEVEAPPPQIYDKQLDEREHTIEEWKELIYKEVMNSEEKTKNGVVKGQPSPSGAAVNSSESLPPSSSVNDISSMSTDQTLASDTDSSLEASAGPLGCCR

Assay [1] has as its target T1, c-Jun N-terminal kinase, JNK (Homo sapiens, UniProt P45983+P53779+P45984). Briefly: Increase of JNK phosphorylation in U50488 treated HEK293 cells expressing GFP tagged kappa opioid receptor. Type of assay: cell-based. The essentials:
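KOR-GFP HEK293 cells under G418, serum-starved 18 h, then concentration series for 1 h at 37 °C. Lysate (40 μg protein) immunoblotted for phospho-JNK, p54 and p46 summed, normalised to basal (100%). EC50 from nonlinear regression; n = 3–5 separate cultures.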

Assay [2] addresses T1, c-Jun N-terminal kinase, JNK. Briefly: Increase of JNK phosphorylation in U50488 treated untransfected HEK293 cells at 10 uM after 1 hr. Type of assay: cell-based. The essentials: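 Untransfected HEK293 cells grown without G418, serum-starved 18 h, then ligand 10 μM for 1 h at 37 °C. Phospho-JNK immunoblot quantified as % of basal untreated control, n = 3–7.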

Molecules are shown by their SMILES. Active and inactive are the calls of the source. No cut-off for these calls is given here.

For the compound `CN(C(=O)Cc1ccc(Cl)c(Cl)c1)C1CCCCC1N1CCCC1` (configuration not stated), the Intrinsic activity in assay [1] was determined as 1. Moreover, in assay [2], the outcome was inactive.
